Assays:
[1] = biological target: T1, progesterone receptor (PR) (Homo sapiens, UniProt P06401); conditions: cited from earlier work
T1 sequence (P06401 1-933): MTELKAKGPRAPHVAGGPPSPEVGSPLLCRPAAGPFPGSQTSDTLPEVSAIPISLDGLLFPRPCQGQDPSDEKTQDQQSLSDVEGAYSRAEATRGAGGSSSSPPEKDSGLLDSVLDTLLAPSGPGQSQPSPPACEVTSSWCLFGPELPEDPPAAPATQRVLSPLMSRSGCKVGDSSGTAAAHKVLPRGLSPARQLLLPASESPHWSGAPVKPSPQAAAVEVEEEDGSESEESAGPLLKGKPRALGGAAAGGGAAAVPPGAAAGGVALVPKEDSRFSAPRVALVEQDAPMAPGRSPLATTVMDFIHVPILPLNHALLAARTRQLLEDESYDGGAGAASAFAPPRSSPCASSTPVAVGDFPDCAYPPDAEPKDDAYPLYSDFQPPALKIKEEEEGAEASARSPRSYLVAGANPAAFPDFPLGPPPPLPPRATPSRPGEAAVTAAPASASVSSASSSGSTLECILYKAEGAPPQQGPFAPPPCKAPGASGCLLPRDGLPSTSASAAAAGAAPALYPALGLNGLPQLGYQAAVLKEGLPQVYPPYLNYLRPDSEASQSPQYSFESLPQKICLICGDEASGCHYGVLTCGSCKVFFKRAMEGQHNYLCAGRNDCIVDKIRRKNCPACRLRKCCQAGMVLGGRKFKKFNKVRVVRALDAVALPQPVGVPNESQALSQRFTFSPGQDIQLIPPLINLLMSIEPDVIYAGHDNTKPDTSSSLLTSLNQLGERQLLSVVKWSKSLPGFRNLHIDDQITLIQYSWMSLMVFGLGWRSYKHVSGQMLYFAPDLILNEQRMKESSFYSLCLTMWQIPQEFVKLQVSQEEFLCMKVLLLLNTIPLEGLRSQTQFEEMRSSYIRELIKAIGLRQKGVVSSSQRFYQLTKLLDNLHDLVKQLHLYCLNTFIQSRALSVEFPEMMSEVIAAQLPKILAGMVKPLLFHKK

[2] = system: uterine leiomyomata; assay: Randomized, double-blinded, placebo-controlled study of mifepristone 5 mg daily for symptomatic uterine leiomyomata (Example 11); format: in vivo, human; conditions: 6 months, P<0.001
From the text: The Study and Results are described in […] et al., Obstetrics & Gynecology, 108(6) (2006), hereby incorporated by reference in its entirety. […] Women were excluded if they were pregnant or intended to become pregnant during the next 6 months or had major medical morbidity or severe anemia, active mental illness, elevated liver enzymes, or substance abuse. Participants agreed to use barrier contraception and not to use hormonal or surgical treatments for leiomyomata during the course of the trial. Analgesic use was permitted. Using design 42 Study Subjects were randomly assigned to take either 5 mg mifepristone daily or a placebo, with twenty-two were randomized to treatment and 20 to placebo. […] Each questionnaire was administered at baseline, 1 month, 3 months, and 6 months, except the McGill Pain Questionnaire, which was assessed monthly. Bleeding was assessed by using daily menstrual logs and pictorial bleeding charts. A monthly blood loss index was calculated from menstrual history by assigning values […] to each day of spotting, indicating light, moderate, and heavy flow, respectively, and then summing the results. […] The uterus was measured in three planes and a total volume calculated. The five largest leiomyomata were identified, a volume calculated for each of the leiomyomata, and the results summed. […]

## CC#C[C@]1(O)CC[C@H]2[C@@H]3CCC4=CC(=O)CCC4=C3[C@@H](c3ccc(N(C)C)cc3)C[C@@]21C [mifepristone, 17-hydroxy-11-(4-dimethylaminophenyl)-17-(prop-1-ynyl)estra-4,9-dien-3-one]
[1]
  affinity for the progesterone receptor (PR): high affinity
[2]
  mean blood loss index vs placebo: significantly lower
